Laboratory results as given in ChEMBL document CHEMBL4602705, “Discovery of N-Cyano-sulfoximineurea Derivatives as Potent and Orally Bioavailable NLRP3 Inflammasome Inhibitors” (ACS Med Chem Lett, 2020).

By UniProt entry, the sequences of proteins in these tests, tags left out.
UniProt Q96P20, whole entry, looked up: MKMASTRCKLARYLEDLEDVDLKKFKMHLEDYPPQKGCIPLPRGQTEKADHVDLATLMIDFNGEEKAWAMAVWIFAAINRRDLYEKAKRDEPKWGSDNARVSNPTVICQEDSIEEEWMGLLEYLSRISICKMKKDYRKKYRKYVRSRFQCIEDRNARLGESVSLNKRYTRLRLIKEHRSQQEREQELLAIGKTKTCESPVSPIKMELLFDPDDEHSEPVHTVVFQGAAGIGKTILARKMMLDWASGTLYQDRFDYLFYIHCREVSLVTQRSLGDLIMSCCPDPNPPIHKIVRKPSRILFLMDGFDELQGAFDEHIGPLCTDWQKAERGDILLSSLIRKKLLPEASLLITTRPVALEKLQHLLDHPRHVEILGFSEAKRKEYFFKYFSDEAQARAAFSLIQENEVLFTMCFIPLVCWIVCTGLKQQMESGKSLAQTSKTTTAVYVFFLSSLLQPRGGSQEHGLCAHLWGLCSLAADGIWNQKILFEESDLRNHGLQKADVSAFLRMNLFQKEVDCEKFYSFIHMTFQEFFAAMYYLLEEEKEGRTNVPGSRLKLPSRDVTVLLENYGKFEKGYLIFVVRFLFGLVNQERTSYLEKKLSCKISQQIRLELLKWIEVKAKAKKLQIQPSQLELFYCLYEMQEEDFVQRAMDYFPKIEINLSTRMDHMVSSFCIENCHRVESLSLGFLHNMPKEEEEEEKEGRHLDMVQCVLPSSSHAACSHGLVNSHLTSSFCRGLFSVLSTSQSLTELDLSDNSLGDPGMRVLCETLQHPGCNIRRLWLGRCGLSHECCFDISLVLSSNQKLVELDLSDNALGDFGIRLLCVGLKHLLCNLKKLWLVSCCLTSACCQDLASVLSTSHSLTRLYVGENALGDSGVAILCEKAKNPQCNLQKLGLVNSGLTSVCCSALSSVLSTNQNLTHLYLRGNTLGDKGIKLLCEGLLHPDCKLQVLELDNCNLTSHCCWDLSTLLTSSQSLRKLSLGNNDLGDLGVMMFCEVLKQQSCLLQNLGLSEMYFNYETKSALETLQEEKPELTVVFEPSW

Target: NACHT, LRR and PYD domains-containing protein 3 (Homo sapiens, UniProt Q96P20)
Settings: thp-1

O=C(Nc1c2c(cc3c1CCC3)CCC2)NP(=O)(O)c1ccccc1
IC50: > 1 µM
